# Laboratory results: PMC7859889 (ACS chemical biology, 2020)
# Tests used:
# ISG15 = test: Multi Gene RT-qPCR, ISG15; assay type: cell-based, human; conditions: C25cl48 cells, 4.0 ng/ml IFN-β, 24 hrs, relative to HPRT1
# TF-1 = TF-1 proliferation assay ref 19; cited from earlier work
# HLA-B mRNA = test: HLA-B RT-qPCR tertiary assay; assay type: cell-based, human; conditions: control samples assayed during screening
# HLA-A = test: Multi Gene RT-qPCR, HLA-A; assay type: cell-based, human; conditions: C25cl48 cells, 4.0 ng/ml IFN-β, 24 hrs, relative to HPRT1
# IFIT1 = test: Multi Gene RT-qPCR, IFIT1; assay type: cell-based, human; conditions: C25cl48 cells, 4.0 ng/ml IFN-β, 24 hrs, relative to HPRT1
# HLA-C = test: Multi Gene RT-qPCR, HLA-C; assay type: cell-based, human; conditions: C25cl48 cells, 4.0 ng/ml IFN-β, 24 hrs, relative to HPRT1
# MX1 = test: Multi Gene RT-qPCR, MX1; assay type: cell-based, human; conditions: C25cl48 cells, 4.0 ng/ml IFN-β, 24 hrs, relative to HPRT1
substance,measurement,setting,value
"IFN-β: Recombinant human IFN-β (Peprotech, 300–02BC) used to stimulate MHC class I expression",CTG viability response in control titrations,HLA-B HiBit cells,subtle concentration-response inhibition of cell proliferation
same,up-regulation of ISG15 by IFN-β,ISG15,100 fold
same,cell count response in control titrations,C25cl48 cells,growth inhibition effect
same,Reported bioactivity,TF-1,approximately 100 pg/ml
same,up-regulation of HLA-B by IFN-β,HLA-B mRNA,42 fold
same,up-regulation of HLA-A by IFN-β,HLA-A,3.1 fold
same,up-regulation of IFIT1 by IFN-β,IFIT1,100 fold
same,up-regulation of HLA-C by IFN-β,HLA-C,11 fold
same,up-regulation of MX1 by IFN-β,MX1,3100 fold
